Data published in patent publication US5225531A, “Hexapeptide Lys Gly Ala Gly Asp Val” (Washington University, priority 1992, dated 1993).
Where “and” joins values, the source holds several entries; their conditions need not be identical. Identical values can stand only once.

Tested on: LRI
Settings: control PMN

- attachment index (AI) of coated beads, beads bound by 100 PMN: 5 and 6
Substance: HSA: pyrogen-free human serum albumin, coated on latex beads as control
